Like-named read-outs stand apart in the source and are kept apart here.

By UniProt entry, the sequences of proteins in these tests, tags left out. Residues count along the entry.
UniProt Q02765, 113-330 limits assumed: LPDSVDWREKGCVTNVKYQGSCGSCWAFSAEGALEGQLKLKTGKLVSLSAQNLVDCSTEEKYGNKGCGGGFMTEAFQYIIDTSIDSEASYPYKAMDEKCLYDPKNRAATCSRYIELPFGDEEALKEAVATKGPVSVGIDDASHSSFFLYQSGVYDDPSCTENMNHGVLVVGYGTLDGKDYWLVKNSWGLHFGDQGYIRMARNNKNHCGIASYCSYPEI
UniProt P07711, 114-333 limits assumed: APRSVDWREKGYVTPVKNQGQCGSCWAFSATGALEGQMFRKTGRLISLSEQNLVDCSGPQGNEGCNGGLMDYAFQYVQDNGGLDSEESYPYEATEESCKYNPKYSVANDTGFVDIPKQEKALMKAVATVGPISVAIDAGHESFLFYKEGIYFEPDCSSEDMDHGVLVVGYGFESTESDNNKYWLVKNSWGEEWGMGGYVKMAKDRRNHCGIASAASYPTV
UniProt P43235, 115-329 limits assumed: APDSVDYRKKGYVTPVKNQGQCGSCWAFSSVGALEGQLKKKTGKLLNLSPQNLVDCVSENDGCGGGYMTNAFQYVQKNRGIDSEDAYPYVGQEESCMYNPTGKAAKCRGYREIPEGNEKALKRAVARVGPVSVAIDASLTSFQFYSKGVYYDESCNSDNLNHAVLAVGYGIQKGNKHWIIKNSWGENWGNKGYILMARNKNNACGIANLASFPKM
UniProt P25774, 115-331 limits assumed: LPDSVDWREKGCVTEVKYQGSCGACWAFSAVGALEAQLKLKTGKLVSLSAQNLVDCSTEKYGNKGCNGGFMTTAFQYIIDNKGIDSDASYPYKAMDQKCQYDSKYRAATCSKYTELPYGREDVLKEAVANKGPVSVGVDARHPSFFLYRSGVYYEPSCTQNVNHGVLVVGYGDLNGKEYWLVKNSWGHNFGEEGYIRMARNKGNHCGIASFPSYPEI

The record followed here is patent publication US20050020588A1, “Cysteine protease inhibitors” (priority 1999, published 2005).

Experiment [1] concerns the target Murine Cathepsin S (Mus musculus, UniProt O70370). In words: Ki competitive inhibition, murine cathepsin S. The conditions noted are these: read-out: Ki (μM) Mouse, Murine Cathepsin S; Table 2, Mouse. The method, then: (§1) Cathepsin S (Mammalian, murine and rat)
(§2) Assays were performed in 100 mM sodium phosphate, 100 mM NaCl, pH 6.5 (buffer) in white 384 well plates (Coming Costar). Eight inhibitors were assayed per plate.
(§3) Inhibitor dilutions were performed on a 96 well V-bottomed polypropylene plate (Corning Costar). 100 μl of buffer was placed in wells 2-5 and 7-12 of rows A, B, C and D. Sufficient of each inhibitor at 10 mM in DMSO was placed into wells A1-D1 and A6-D6 to give the desired final concentration when the volume in the well was made up to 200 μl with buffer. Column 1 was made up to 200 μl with buffer, mixed by aspirating and dispensing 100 μl in the well, and 100 μl transferred to column 2. The pipette tips were changed and the mixing and transferral repeated to column 5. This process was repeated for columns 6-10.
(§4) Substrate dilutions were performed on a 96 deep well polypropylene plate (Beckman Coulter). 280 μl of buffer was placed in wells B-H of columns 1 and 2.70 μl of 10 mM boc-Val-Leu-Lys-AMC was placed in A1 and A2. 2×250 μl of buffer was added to wells A1 and A2, mixed by aspirating and dispensing 280 μl in the well, and 280 μl transferred to row B. The pipette tips were changed and the process repeated down the plate to row H.
(§5) Column 1 of the substrate dilution plate was distributed at 10 μl per well into alternate rows beginning at row A. Column 2 was distributed to alternate rows beginning at row B. Row A of the inhibitor dilution plate was distributed at 10 μl per well to alternate rows and columns starting at A1. Row B was distributed to alternate rows and columns starting at A2. Row C was distributed to alternate rows and columns starting at B1 and row D was distributed to alternate rows and columns starting at B2. The assay was started by the addition of 30 μl per well of 20 nM cathepsin S in buffer containing 10 mM 2-mercaptoethanol.
(§6) Data were saved as text files and imported into Excel. The initial rates were determined by linear regression and then fitted to the competitive inhibition equation using SigmaPlot.

For experiment [2], the target named is Rat Cathepsin S (Rattus norvegicus, UniProt Q02765). In words: Ki competitive inhibition, rat cathepsin S. The conditions noted are these: read-out: Ki (μM) Rat, Rat Cathepsin S; Table 2, Rat. How it is done:
as §1, §2, §3, §4, §5, §6

For experiment [3], the target named is Mammalian Cathepsin L (Homo sapiens, UniProt P07711). In words: Ki competitive inhibition, cathepsin L. The settings on record: read-out: Ki competitive inhibition measurements vs Mammalian Cathepsin L; Table 1, second line of each CAP-P2 block. The method, then:
as §6
(§7) Assays were performed essentially as above. For cathepsin L, the buffer used was 100 mM sodium acetate, 1 mM EDTA, pH 5.5 and the substrate was D-Val-Leu-Lys-AMC with a highest concentration of 100 μM. For cathepsin K, the buffer used was 100 mM MES/Tris, 1 mM EDTA, pH 7.0 and the substrate was D-Ala-Leu-Lys-AMC with a highest concentration of 250 μM.

The target in experiment [4] is Mammalian Cathepsin K (Homo sapiens, UniProt P43235). Put plainly: Ki competitive inhibition, cathepsin K. The conditions noted are these: read-out: Ki competitive inhibition measurements vs Mammalian Cathepsin K; Table 1, third line of each CAP-P2 block. The method, then:
as §7
Convenient assays for cathepsin K arere carried out using human recombinant enzyme. Standard assay conditions for the determination of kinetic constants used a fluorogenic peptide substrate, typically H-D-Ala-Leu-Lys-AMC, and were determined in either 100 mM Mes/Tris, pH 7.0 containing 1 mM EDTA and 10 mM 2-mercaptoethanol or 100 mM Na acetate, pH 5.5 containing 5 mM EDTA and 20 mM cysteine. The enzyme concentration used was 5 nM. The stock substrate solution was prepared at 10 mM in DMSO. Screens were carried out at a fixed substrate concentration of 60 μM and detailed kinetic studies with doubling dilutions of substrate from 250 μM. The total DMSO concentration in the assay was kept below 3%. All assays were conducted at ambient temperature. Product fluorescence (excitation at 390 nm, emission at 460 nm) was monitored with a Labsystems Fluoroskan Ascent fluorescent plate reader. Product progress curves were generated over 15 minutes following generation of AMC product.
Potential inhibitors are screened using the above assay with variable concentrations of test compound. Reactions were initiated by addition of enzyme to buffered solutions of substrate and inhibitor. Ki values were calculated according to equation 1 [formula] where ν0 is the velocity of the reaction, V is the maximal velocity, S is the concentration of substrate with Michaelis constant of KM, and I is the concentration of inhibitor. Determination of Falcipain 2 Proteolytic Catalytic Activity

For experiment [5], the target named is Mammalian Cathepsin S (Homo sapiens, UniProt P25774). In words: Ki competitive inhibition, mammalian cathepsin S. How it is done:
as §1, §2, §3, §4, §5, §6

Setting [6] is: read-out: Ki (μM) Human, Mammalian Cathepsin S, Table 2, Human.
[7] abbreviates: read-out: Ki competitive inhibition measurements vs Mammalian Cathepsin S, Table 1, first line of each CAP-P2 block.

What is called Ki is the equilibrium dissociation constant of an inhibitor or competing ligand from its target. For the compound `CC[C@@H]1OCC(=O)[C@H]1NC(=O)[C@H](CC(C)(C)C)NC(=O)c1ccsc1`, the Ki in experiment [1] was 0.024 µM; in experiment [2] it was 0.048 µM; in experiment [3], 14500 nM; in experiment [4] it was 325 nM.
In the case of `CCC(C)(C)C[C@H](NC(=O)c1ccoc1)C(=O)N[C@@H]1C(=O)CO[C@H]1C`, the Ki is 0.21 µM in experiment [5] (setting [6]); 0.21 µM in experiment [5] (setting [7]); 0.263 µM in experiment [1]; 0.518 µM in experiment [2]; over 100000 nM in experiment [3]; 30200 nM in experiment [4].
In the case of `CC[C@@H]1OCC(=O)[C@H]1NC(=O)[C@H](CC(C)(C)C(C)C)NC(=O)c1ccsc1`, the Ki in experiment [5] (setting [6]) came out at 0.021 µM; in experiment [5] (setting [7]) it was 0.021 µM; in experiment [1], 0.091 µM; in experiment [2], 0.657 µM; in experiment [3], 90800 nM; in experiment [4], 1940 nM.
As to `CC(C)C(C)(C)C[C@H](NC(=O)c1ccoc1)C(=O)N[C@@H]1C(=O)CO[C@H]1C`, the Ki is 0.236 µM in experiment [5] (setting [6]); 0.236 µM in experiment [5] (setting [7]); 0.294 µM in experiment [1]; 0.58 µM in experiment [2]; 65600 nM in experiment [3]; over 100000 nM in experiment [4].
Take `CC(C)CC[C@H](NC(=O)c1ccoc1)C(=O)N[C@@H]1C(=O)CO[C@H]1C` [CAP8-L-hLeu/drawing 71]: the results for the Ki in experiment [5] (setting [6]), in experiment [1] and in experiment [2] were 0.54 µM, 0.895 µM and 2.31 µM, respectively.
